Source: patent publication US9347884B2, “Microfluidic device with direct sample heating via electromagnetic radiation” (UCL BUSINESS PLC, priority 2009, dated 2016)

Legend:
[1] = 0.5 mg ml^−1 BSA, flow rate 10 μl/min, capillary
[2] = Microplate method; urea; from Aucamp 2005; cited from earlier work
[3] = Capillary method, urea
Description: Samples were measured and averaged for 100 laser pulses. […] Error bars shown are standard deviations.

## bovine serum albumin [BSA]
[1]
  mid-point of the transition (urea concentration): 4.5 M
[2]
  C1/2 (transition mid-point): 3.6 ± 0.2 M
  mG: 1.2 ± 0.2 kcal mol^−1 M^−1
  ΔGH2O: 4.4 ± 0.8 kcal/mol
[3]
  mG: 1.9 ± 0.2 kcal mol^−1 M^−1
  ΔGH2O: 7.0 ± 0.8 kcal/mol
[3]; 7.14 μM BSA, 50 mM Tris.HCl pH 7.2, 22° C.
  C1/2 (transition mid-point): 3.7 ± 0.2 M

Where two headings read alike, the source gives them in different places.
